The values that follow come from patent US20130123326A1, “ALLOSTERIC BINDING COMPOUNDS” (REGION MIDTJYLLAND, priority 2009, published 2013).

By UniProt entry, the sequences of proteins in these tests, tags left out.
UniProt P31645, whole entry: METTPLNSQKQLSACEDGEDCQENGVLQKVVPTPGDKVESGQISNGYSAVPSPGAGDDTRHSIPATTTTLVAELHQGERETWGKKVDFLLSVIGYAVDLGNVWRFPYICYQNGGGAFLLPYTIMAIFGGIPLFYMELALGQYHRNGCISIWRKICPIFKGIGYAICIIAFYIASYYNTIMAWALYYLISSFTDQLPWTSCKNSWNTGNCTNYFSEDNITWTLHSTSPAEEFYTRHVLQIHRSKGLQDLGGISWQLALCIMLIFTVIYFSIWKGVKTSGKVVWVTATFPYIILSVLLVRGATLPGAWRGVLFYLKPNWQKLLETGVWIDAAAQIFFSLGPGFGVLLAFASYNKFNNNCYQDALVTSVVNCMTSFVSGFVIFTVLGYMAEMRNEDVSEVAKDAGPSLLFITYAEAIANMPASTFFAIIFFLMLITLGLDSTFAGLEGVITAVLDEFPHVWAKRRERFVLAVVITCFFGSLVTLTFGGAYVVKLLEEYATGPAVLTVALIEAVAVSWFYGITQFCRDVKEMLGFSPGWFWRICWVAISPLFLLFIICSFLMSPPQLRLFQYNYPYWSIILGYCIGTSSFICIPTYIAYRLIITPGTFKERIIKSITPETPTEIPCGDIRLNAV

The target of the assay is hSERT (Homo sapiens, UniProt P31645). The experiment in a line: Dissociation assay with [3H]-citalopram and hSERT membrane preparations. It is filed as binding. The procedure:
Dulbecco's modified Eagle's medium, fetal bovine serum, trypsin, and penicillin/streptomycin were purchased from Invitrogen. Cell culture flasks were from NUNC. MicroScint-20 scintillation mixture was from Packard. [^3H]-Citalopram (85 Ci/mmol) was a gift from H. Lundbeck A/S (Valby, Denmark). Fugene-6 transfection reagent was from Roche Molecular Biochemicals. All chemicals are commercially available. Stock solutions of the allosteric ligands were prepared as 100 mM in EtOH.
Cell Culture and Expression of hSERT in HEK-293 MSR cells.
HEK-293 MSR cells were maintained in Dulbecco's modified Eagle's medium (DMEM) supplemented with 10% fetal calf serum, 0.1 mM nonessential amino acids, 600 μg/mL Geneticin, 100 μg/ml streptomycin, and 100 units/ml penicillin at 37° C. and 5% CO2 in a humidified atmosphere. The pcDNA3 plasmid vector containing the hSERT gene was used for transfection. […]
SERT-[^3H]-citalopram complex was formed by incubating hSERT membrane preparation and radioligand in buffer 3 during a 60 min incubation at 4° C. […] Bound radioactivity was determined by direct counting of plates using a Packard Bell microplate scintillation counter. […]
The relative off-rate is expressed as the off-rate of the radioligand at a given concentration of allosteric compound, normalized to the off-rate of radioligand in the absence of allosteric compound. […]

As for “2-Dimethylaminoethyl-1-Naphthyl Sulfide [Example 19]”, under “concentration of allosteric compound inducing 50% attenuation of the off-rate of the radioligand from SERT, 10 μM fluoxetine in dissociation buffer”, the half-maximal effective concentration (EC50) worked out at 6.4 µM. The “Max. Stability (maximum stabilization factor)” value (estimated upper plateau of sigmoidal response curve: how many folds the off-rate of bound radioligand from SERT can be attenuated, N/A = No activity) was 5.8.

In general, EC50 refers to the concentration that produces a half-maximal response. The low end stands for higher potency in that assay, the high end for lower potency in that assay.
